# Measurements taken from patent US5001058A (Bristol-Myers Company, priority 1989, dated 1991).
# Where two headings read alike, the source gives them in different places.
# Tested on: B16 melanoma
# Settings: for MST (median survival time) / T/C: Q4D × 3, ip; for T/C: T/C ≥ […] significant
structure (smiles),measurement,setting,value
Cc1cc2c(c3oc(C(O)(CO)C4CO4)cc(=O)c13)C(=O)c1c(O)cccc1C2=O (stereo not shown) [BU-3839T],MST (median survival time),0.5 mg/kg/day,11.0 days
same,T/C,0.5 mg/kg/day,81%
same,MST (median survival time),1.0 mg/kg/day,10.0 days
same,T/C,1.0 mg/kg/day,74%
same,MST (median survival time),2.0 mg/kg/day,Tox
same,T/C,2.0 mg/kg/day,Tox
same,Antitumor activity against ip-B16 melanoma,"in words, at the doses tested",minimum antitumor activity
